Experimental findings from ChEMBL document CHEMBL1123300 (J Med Chem, 1986) are described below.

Amino acid sequences for entries named in this document (tags omitted). A change or cut given only in a name is not applied to a line headed by its entry.
UniProt P00797: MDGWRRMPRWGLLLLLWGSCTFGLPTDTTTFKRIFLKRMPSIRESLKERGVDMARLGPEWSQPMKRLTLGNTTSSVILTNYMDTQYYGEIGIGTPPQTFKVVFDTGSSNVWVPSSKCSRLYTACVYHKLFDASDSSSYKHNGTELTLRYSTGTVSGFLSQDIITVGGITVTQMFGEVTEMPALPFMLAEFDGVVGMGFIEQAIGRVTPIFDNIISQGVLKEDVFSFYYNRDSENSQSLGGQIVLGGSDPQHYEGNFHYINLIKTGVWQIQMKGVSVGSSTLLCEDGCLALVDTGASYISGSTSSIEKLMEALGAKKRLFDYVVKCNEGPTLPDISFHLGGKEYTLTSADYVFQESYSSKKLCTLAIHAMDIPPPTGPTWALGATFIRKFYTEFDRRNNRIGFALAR

Assay [1] has as its target T1, Renin (Homo sapiens, UniProt P00797). Briefly: In vitro inhibitory activity against man plasma renin. The format is cell-free.
Assay [2] addresses T1, Renin. Kind of assay: In vitro inhibitory activity against human plasma renin. It is filed as cell-free.

A word on the IC50: it is the midpoint of a concentration-inhibition curve. A high value points to weaker potency. Take `COC(=O)C[C@H](O)[C@H](CC(C)C)NC(=O)[C@H](C)NC(=O)C[C@H](O)[C@H](CC(C)C)NC(=O)[C@H](Cc1c[nH]c2ccccc12)NC(=O)[C@H](Cc1c[nH]c2ccccc12)NC(=O)OC(C)(C)C`: the IC50 at Renin [1] was found to be 0.17 µM; on Renin [2], 150 µM.

As to `COC(=O)CC(O)[C@H](CC(C)C)NC(=O)[C@H](C)NC(=O)CC(O)[C@H](CC(C)C)NC(=O)[C@@H](NC(=O)[C@@H](Cc1ccccc1)NC(=O)OC(C)(C)C)C(C)C` (stereo not given in full), inhibition against Renin [2] was half-maximal at 10 µM (IC50). This lies in the double-digit micromolar range.

Regarding `COC(=O)C[C@H](O)[C@H](CC(C)C)NC(=O)[C@H](C)NC(=O)C[C@H](O)[C@H](CC(C)C)NC(=O)[C@@H](Cc1c[nH]c2ccccc12)NC(=O)[C@H](Cc1c[nH]c2ccccc12)NC(=O)OC(C)(C)C`, the IC50 against Renin [2] was over 100 µM.

`COC(=O)C[C@H](O)[C@H](CC(C)C)NC(=O)[C@H](C)NC(=O)C[C@H](O)[C@H](CC(C)C)NC(=O)[C@H](Cc1c[nH]c2ccccc12)NC(=O)[C@@H](Cc1c[nH]c2ccccc12)NC(=O)OC(C)(C)C` gave an IC50 against Renin [2] of over 100 µM.
